Measurements as given in patent EP2790511B1 (Merck Sharp & Dohme Corp., priority 2011, dated 2013).

Experiments:
Kir1.1 (ROMK1) = biological target: T1, Kir1.1 (ROMK1) (Homo sapiens, UniProt P48048); assay: Electrophysiology Assay (whole cell voltage clamp, IonWorks Quattro)
T1 sequence (P48048 1-391): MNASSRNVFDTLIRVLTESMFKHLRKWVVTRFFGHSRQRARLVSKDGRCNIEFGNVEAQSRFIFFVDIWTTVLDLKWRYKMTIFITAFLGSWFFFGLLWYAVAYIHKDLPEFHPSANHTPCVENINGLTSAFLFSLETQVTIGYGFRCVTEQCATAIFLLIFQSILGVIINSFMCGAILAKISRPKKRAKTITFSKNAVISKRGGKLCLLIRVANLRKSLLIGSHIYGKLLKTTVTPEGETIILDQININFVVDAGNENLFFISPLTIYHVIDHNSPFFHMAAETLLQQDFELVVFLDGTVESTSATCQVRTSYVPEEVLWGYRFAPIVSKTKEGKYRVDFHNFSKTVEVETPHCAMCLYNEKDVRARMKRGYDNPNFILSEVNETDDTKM

hROMK (hKir1.1) = biological target: T2, hROMK (hKir1.1) (Homo sapiens, UniProt P48048); assay: Thallium Flux Assay; assay type: cell-based
T2 construct: expressed in transfected cells
T2 sequence (P48048 1-391): T1 sequence (P48048 1-391)
Protocol: Cell Culture Conditions- HEK293 cells stably expressing hROMK (hKir1.1) were grown at 37°C in a 10%CO2 humidified incubator in complete growth media: Dulbecco's Modified Eagle Medium supplemented with non-essential amino acids, Penicillin/Streptomycin/Glutamine, G418 and FBS. At >80% confluency, aspirate the media from the flask and rinse with 10 mL Calcium/Magnesium-free PBS. […] To dislodge the cell, gently bang the side of the flask with your hand. Triturate the cells completely and then transfer the cells to 25 mL complete media. Centrifuge at 1,500 rpm for 6 min followed by resuspension in complete growth media and determine cell concentration. […] Under ideal growth conditions and appropriate tissue culture practices, this cell line is stable for 40-45 passages.
• FluxOR™ Reagent (Component A) • FluxOR™ Assay Buffer (Component B) - 10X Concentrate • PowerLoad™ Concentrate (Component C) - 100X Concentrate • Probenecid (Component D) - Lyophilized sample is kept at -20°C. Water soluble, 100X after solubilization in 1 mL water. […] Store at 4°C. • Thallium sulfate (Tl2SO4) Concentrate (Component G) - 50 mM in water. Store at 4°C • DMSO (dimethyl sulfoxide, Component H) - 1 mL (100%) […]
Data Calculation- The fluorescence intensity of wells containing 3 µM of a standard control ROMK inhibitor of the present invention is used to define the ROMK-sensitive component of thallium flux. Fluorescence in the presence of test compounds is normalized to control values to provide % fluorescence change.

Question: With C[C@@H]1Cc2cc([C@@H]3CN4CCN(C(=O)Cc5ccc(-n6cnnn6)nc5)C[C@H]4CO3)ccc2C(=O)O1 [Example 36] as the molecule, how does the IC50 (Kir1.1 (ROMK1)) read?
Answer: 0.15 µM

Question: How did the IC50 (hROMK (hKir1.1)) turn out when C[C@H]1Cc2cc([C@@H]3CN4CCN(C(=O)Cc5ccc(-n6cnnn6)nc5)C[C@H]4CO3)ccc2C(=O)O1 [Example 33, (3,S)-3-methyl-6-[(3R,9aS)-8-{[6-(1H-tetrazol-1-yl)pyridin-3-yl]acetyl}octahydropyrazino[2,1-c][1,4]oxazin-3-yl]-3,4-dihydro-1H-isochromen-1-one] was run?
Answer: 0.08 µM

Question: What about the IC50 (Kir1.1 (ROMK1)) of the same molecule?
Answer: 0.08 µM

Question: C[C@H]1Cc2cc([C@H]3CN4CCN(C(=O)Cc5ccc(-n6cnnn6)nc5)C[C@H]4CO3)ccc2C(=O)O1 [Example 34, (3S)-3-methyl-6-[(3S,9aS)-8-{[6-(1H-tetrazol-1-yl)pyridin-3-yl]acetyl}octahydropyrazino[2,1-c][1,4]oxazin-3-y]-3,4-dihydro-1H-isochromen-1-one] was tested. Which IC50 (hROMK (hKir1.1)) did it give?
Answer: 0.58 µM

Question: For C[C@H]1Cc2cc([C@H]3CN4CCN(C(=O)Cc5ccc(-n6cnnn6)nc5)C[C@@H]4CO3)ccc2C(=O)O1 [Example 35, (3S)-3-methyl-6-[(3S,9aR)-8-{[6-(1H-tetrazol-1-yl)pyridin-3-yl]acetyl}octahydropyrazino[2,1-c][1,4]oxazin-3-yl]-3,4-dihydro-1H-isochromen-1-one], which IC50 (hROMK (hKir1.1)) is on record?
Answer: 0.18 µM
